PubChem BioAssay AID1022 (Emory University Molecular Libraries Screening Center, 2008)
The list shows a part of the results, in another mix than the full data. Calls of active or inactive are those of the source.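 The calls were made as follows: active = compounds that cut the protein-peptide binding signal by more than 50% relative to plate controls in a single-dose test; inactive = the rest.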

Chains of the proteins cited; added tags and fusions are not shown.
UniProt Q07820, whole entry, looked up: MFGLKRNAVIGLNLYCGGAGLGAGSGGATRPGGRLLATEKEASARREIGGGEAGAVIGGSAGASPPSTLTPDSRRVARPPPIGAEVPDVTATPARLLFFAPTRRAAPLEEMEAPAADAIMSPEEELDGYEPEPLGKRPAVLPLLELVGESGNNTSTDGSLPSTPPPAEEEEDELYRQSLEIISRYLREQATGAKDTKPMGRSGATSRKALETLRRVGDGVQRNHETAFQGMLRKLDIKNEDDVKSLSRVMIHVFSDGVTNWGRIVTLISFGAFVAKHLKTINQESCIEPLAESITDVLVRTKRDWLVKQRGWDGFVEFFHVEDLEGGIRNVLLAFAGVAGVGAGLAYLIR

molecular target: Induced myeloid leukemia cell differentiation protein Mcl-1 (Homo sapiens) (UniProt Q07820); experiment: Mcl-1/Noxa binding inhibitors, primary screen, biochemical, TR-FRET, 1536-well (AID 1022); conditions: TR-FRET Mcl-1/Noxa peptide binding, 2 h; at 21.7 µM; stronger effect = higher value;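 also: His-tagged Mcl-1 with rhodamine Noxa BH3 peptide and terbium anti-His antibody; 0% = Mcl-1 plus Noxa peptide wells and 100% = peptide-only wells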

SMILES	inhibition
O=P(Nc1ccccn1)(c1ccc(Br)cc1)c1ccc(Br)cc1	inactive: 18.4%
c1nnnn1CCn1cnnn1	inactive: -3.05%
O=P(Nc1nccs1)(c1ccccc1)c1ccccc1	inactive: 0.2%
CC(C)C(=O)NC(Sc1ccccc1)C(Cl)(Cl)Cl (stereo not drawn)	inactive: 7.57%
CC(=O)Nc1ccc([As](=O)(O)O)c(O)c1	inactive: -0.24%
CC(=O)Nc1ccc(Oc2c([N+](=O)[O-])cc([N+](=O)[O-])cc2[N+](=O)[O-])cc1	inactive: 17.2%
C[C@H]1OP(=O)(Oc2ccccc2)C[C@@H]2O[C@@H]21 (stereo partly drawn)	inactive: -7.8%
C[C@@H]1C=CCP(=O)(Oc2ccccc2)O1 (stereo partly drawn)	inactive: -1.18%
CC(C)(C)C(=O)NC(Sc1ccccc1)C(Cl)(Cl)Cl (stereo not drawn)	inactive: 8.12%
O=P1(Nc2nc3ccc(Cl)cc3s2)COc2ccccc2O1 (stereo not drawn)	inactive: 2.85%
CCOc1ccc(C2=NCC(CBr)S2)cc1 (stereo not drawn)	inactive: 25.8%
Cc1ccccc1OP(=O)(Nc1ccccn1)Oc1ccccc1C	inactive: -4.86%
O=c1c2cc([N+](=O)[O-])ccc2[nH]c2c([N+](=O)[O-])cc([N+](=O)[O-])cc12	active: 55%
CN(C)C(=O)Oc1noc2ccccc12	inactive: -8.05%
COC(=O)c1cc2c(s1)N=C(c1ccccc1)N(C)P2(=O)N1CCOCC1 (stereo not drawn)	inactive: 8.73%
CC(=O)NC(SC(=S)N(CC(C)C)CC(C)C)C(Cl)(Cl)Cl (stereo not drawn)	inactive: 37.2%
Cc1ccc(OP(=O)(Nc2ccccn2)Oc2ccc(C)cc2)cc1	inactive: -7.37%
CCC(=O)N1C2C3N(C(=O)CC)C1C1N(C(=O)CC)C(C(N1C(=O)CC)N3C(=O)CC)N2C(=O)CC	inactive: -21.8%
O=C(NC1CCS(=O)(=O)C1)NP(=S)(Oc1ccccc1)Oc1ccccc1 (stereo not drawn)	active: 69%
CCNC(=S)/N=C(\N)N[N+](=O)[O-]	inactive: -11%
c1ccc(-c2nn[nH]n2)c(-c2nn[nH]n2)c1	inactive: 25.4%
Cc1ccc(NP(=O)(Oc2cccc(C)c2)Oc2cccc(C)c2)nc1	inactive: -3.11%
CCOC(=O)NC(Sc1ccccc1)C(Cl)(Cl)Cl (stereo not drawn)	inactive: -6.46%
